{"source": "ChEMBL document CHEMBL4814010", "about": "“The development of highly potent and selective small molecule correctors of Z α1-antitrypsin misfolding” (Bioorg Med Chem Lett, 2021)", "key": {"Homo sapiens": {"species_on_record": "Homo sapiens", "assay": "Selectivity for Z variant alpha1-antitrypsin (unknown origin) over M variant alpha1-antitrypsin (unknown origin)"}, "CHO": {"test_system": "CHO", "assay": "Corrector activity of Z variant alpha1-antitrypsin misfolding (unknown origin) expressed in CHO cells assessed as inhibition of Z variant alpha1-antitrypsin polymerisation by measuring increase in Z alpha1 antitrypsin secretion relative to control", "type": "cell-based", "details": "Homo sapiens"}}, "data": [{"smiles": "CCC[C@@H](NC(=O)c1cccc2c1CC(=O)N2)[C@@H](O)c1cccc(F)c1C", "values": [{"measurement": "Selectivity ratio", "setting": "Homo sapiens", "result": 50}, {"measurement": "fold change (FC)", "setting": "CHO", "result": 3}]}]}
